Assay results as given in ChEMBL document CHEMBL4673190, “Recent developments in anticancer kinase inhibitors based on the pyrazolo[3,4-d]pyrimidine scaffold” (RSC Med Chem, 2020).
pIC50: −log10 of the molar value.

By UniProt entry, the sequences of proteins in these tests, tags left out. Where a name states a change or a piece, a line headed by the entry shows the natural chain unless it says otherwise.
UniProt P48736: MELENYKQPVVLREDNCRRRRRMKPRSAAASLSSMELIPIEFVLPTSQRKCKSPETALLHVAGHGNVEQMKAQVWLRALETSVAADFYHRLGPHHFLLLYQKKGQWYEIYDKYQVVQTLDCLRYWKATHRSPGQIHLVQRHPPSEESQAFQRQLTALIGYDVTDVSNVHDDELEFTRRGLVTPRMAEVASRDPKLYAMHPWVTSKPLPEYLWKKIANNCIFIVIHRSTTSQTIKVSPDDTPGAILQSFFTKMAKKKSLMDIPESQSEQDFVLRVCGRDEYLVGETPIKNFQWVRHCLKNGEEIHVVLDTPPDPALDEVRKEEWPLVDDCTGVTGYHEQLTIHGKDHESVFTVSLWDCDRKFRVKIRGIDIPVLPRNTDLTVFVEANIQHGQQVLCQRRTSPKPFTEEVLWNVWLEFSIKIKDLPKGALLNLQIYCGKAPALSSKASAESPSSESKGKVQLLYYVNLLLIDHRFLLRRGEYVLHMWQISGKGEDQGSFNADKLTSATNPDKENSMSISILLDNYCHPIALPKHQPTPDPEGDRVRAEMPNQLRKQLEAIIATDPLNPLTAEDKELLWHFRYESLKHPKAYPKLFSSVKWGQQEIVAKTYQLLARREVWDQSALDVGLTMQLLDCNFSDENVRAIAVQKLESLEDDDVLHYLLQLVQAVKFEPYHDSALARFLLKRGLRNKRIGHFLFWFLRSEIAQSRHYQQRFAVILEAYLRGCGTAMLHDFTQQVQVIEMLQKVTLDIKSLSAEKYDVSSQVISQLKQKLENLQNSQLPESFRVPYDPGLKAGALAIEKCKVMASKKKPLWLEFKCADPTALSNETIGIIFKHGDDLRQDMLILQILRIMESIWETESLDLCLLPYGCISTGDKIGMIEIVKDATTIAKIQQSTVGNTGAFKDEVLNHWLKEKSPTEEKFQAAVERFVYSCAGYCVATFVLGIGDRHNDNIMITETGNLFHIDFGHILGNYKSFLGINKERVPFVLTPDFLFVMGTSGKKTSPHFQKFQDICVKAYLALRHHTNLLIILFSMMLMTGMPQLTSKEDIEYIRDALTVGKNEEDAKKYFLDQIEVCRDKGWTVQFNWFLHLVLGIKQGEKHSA

Target: Phosphatidylinositol 4,5-bisphosphate 3-kinase catalytic subunit gamma isoform (Homo sapiens, UniProt P48736)

pIC50: < 6.70
SMILES: CC(C)n1nc(-c2ccc3oc(N)nc3c2)c2c(N)ncnc21 [SAPANISERTIB]
